This is an account of results in US5574008A, “Biologically active fragments of glucagon-like insulinotropic peptide” (Eli Lilly and Company, priority 1994, dated 1996).

The target of this test is T1, rat GLP-1 receptor (Rattus norvegicus, UniProt P32301).
T1 construct: expressed in transfected cells; host or cells: Dihydrofolate reductase-deficient Chinese hamster ovary cell line DXB-11; membrane preparation
T1 sequence (P32301 22-463): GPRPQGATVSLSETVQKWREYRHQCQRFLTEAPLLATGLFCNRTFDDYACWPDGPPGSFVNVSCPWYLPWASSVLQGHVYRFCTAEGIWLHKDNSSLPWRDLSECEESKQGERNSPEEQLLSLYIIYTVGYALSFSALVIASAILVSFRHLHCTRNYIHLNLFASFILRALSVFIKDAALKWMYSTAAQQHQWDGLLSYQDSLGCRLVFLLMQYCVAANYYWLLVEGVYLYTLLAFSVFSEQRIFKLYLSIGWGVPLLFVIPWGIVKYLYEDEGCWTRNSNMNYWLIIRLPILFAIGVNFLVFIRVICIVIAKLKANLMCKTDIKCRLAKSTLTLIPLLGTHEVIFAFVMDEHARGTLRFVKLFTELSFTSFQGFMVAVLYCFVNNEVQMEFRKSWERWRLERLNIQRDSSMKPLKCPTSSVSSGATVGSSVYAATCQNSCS
Nature of the test: In vitro GLP-1 agonist cAMP assay (particle concentration fluorescence immunoassay, membrane preparation). It is filed as biochemical. The source says: In vitro GLP-1 Agonist cAMP Assay
The published DNA sequence for the rat GLP-1 receptor (Thorens B., et. al. Proc. Natl. Acad. Sci. U.S.A. 89:8641-8645 (1992) and the dihydrofolate reductase resistance marker gene were used in conjunction with Polymerase Chain Reaction (PCR) techniques to construct an expression vector. The dihydrofolate reductase-deficient mutant Chinese hamster ovary cell line (DXB-11) was transformed with the vector resulting in a recombinant Chinese hamster ovary cell line that expressed the rat GLP-1 membrane receptor.
Cells were grown to confluency in 10% dialyzed fetal bovine serum/high glucose Dulbecco's Modified Eagle Medium with 0.1% proline at 37° C. The cell were then harvested, and membranes were prepared by first washing the cells with phosphate buffered saline (PBS), then twice with cold buffer (25 mM 4-(2-hydroxyethyl)-1 piperazineethanesulfonic acid (HEPES), 2 mM MgCl2, 1 mM ethylenedinitrilo-tetraacetic acid (EDTA), 20 μg/ml Leupeptin, 1 mM phenylmethyl sulfonyl fluoride (PMSF), 2 μg/ml Aprotinin, 50 μg/ml Trypsin Inhibitor, pH 8.0). The washed cells were resuspended in cold buffer, lysed in a glass Teflon homogenizer and then centrifuged at 35,300 g for 30 minutes at 4° C. The supernatant was removed and the pellet resuspended in cold buffer and homogenized. Two hundred μl aliquots (3.2 mg/ml) were stored at -80° C.
Briefly, 10 μl of membrane prep (80 μg/ml) was preincubated with 10 μl of test compound or reference compound in buffer (25 mM HEPES, 0.2% (w/v) bovine serum albumin (BSA), pH 7.6) at 32° C. for 10 minutes. Five μl of reaction buffer (25 mM HEPES, 0.2% (w/v) BSA, 13 mM (CH3 C00)2 Mg.4H2 O, 4 mM adenosine-5'-triphosphate (ATP), 40 nM guanosine 5'-O-3'thiotriphosphate (GTP-∂-s), 25 mM creatine phosphate, creatine kinase 250 U/ml, 1 mM 3-Isobutyl-1-methyl xanthine (IBMX), pH 7.6) was added and incubated for an additional 30 minutes. Incubations were stopped by adding 25 μl 10 mM EDTA and fluorescent tracer (cAMP-β phycoerythrin conjugate).
This assay, a particle concentration fluorescence immunoassay, was based on the competition between unlabelled cAMP and a fixed amount of fluorescent labelled cAMP for a limited number of binding sites on a cAMP specific antibody. By keeping the quantity of fluorescent ligand and antibody fixed, the amount of fluorescent ligand bound by the antibody was inversely proportional to the concentration of unlabelled cAMP. The antibody-bound cAMP was then captured by anti-rabbit IgG coated assay particles. Separation of the bound antibody fraction was achieved by filtration on Fluoricon®-Ca Assay Plates. After measuring the fluorescence in the pellet, the amount of bound fluorescent cAMP was calculated. The rate of cAMP production (pmol/min/mg) was then determined by interpolation from a standard curve.
Background: Cyclic AMP is a second messenger, typically raised through Gs and lowered through Gi signalling.

GLP-1(7-37)OH [reference compound]: the cAMP produced was determined as 25.481 pmol/min/mg (Dose 0.005 nM); 28.494 pmol/min/mg (Dose 0.01 nM); 30.453 pmol/min/mg (Dose 0.02 nM); 30.453 pmol/min/mg (Dose 0.05 nM); 42.567 pmol/min/mg (Dose 0.1 nM); 59.037 pmol/min/mg (Dose 0.4 nM). The cAMP produced is given as 68.697 pmol/min/mg (Dose 1 nM), 70.282 pmol/min/mg (Dose 4 nM), 67.494 pmol/min/mg (Dose 10 nM) and 65.665 pmol/min/mg (Dose 100 nM). Also, the “stimulation of cAMP production (fluorescent intensity)” value (result in words) was “increased cAMP concentration”.
